Results published in ChEMBL document CHEMBL4808217, “Design, Synthesis, and Characterization of 4-Aminoquinazolines as Potent Inhibitors of the G Protein-Coupled Receptor Kinase 6 (GRK6) for the Treatment of Multiple Myeloma” (J Med Chem, 2021).

Amino acid sequences for entries named in this document (tags omitted).
UniProt P43250, whole entry, looked up: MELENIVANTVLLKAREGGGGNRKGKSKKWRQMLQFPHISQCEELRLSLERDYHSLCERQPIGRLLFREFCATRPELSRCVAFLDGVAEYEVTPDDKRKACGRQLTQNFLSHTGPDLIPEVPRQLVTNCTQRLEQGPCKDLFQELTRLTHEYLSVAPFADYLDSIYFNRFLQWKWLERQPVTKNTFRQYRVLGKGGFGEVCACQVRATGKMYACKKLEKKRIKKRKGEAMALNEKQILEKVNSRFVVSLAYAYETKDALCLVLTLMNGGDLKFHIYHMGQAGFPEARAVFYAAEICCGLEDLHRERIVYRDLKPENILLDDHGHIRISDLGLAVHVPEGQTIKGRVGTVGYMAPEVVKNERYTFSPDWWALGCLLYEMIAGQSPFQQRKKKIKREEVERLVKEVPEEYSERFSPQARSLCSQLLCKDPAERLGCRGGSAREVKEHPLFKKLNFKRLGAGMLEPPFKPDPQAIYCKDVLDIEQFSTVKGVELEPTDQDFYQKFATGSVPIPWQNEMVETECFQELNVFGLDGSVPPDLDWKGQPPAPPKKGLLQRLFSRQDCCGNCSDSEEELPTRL

Molecular target: G protein-coupled receptor kinase 6 (Homo sapiens, UniProt P43250)
Conditions: KMS-11, dose 5.0 µM, time 2.5 hrs

Row | T1/2 [h] | SMILES
1 | 2 | CCc1cc(Nc2nc(NCc3ccc(Cl)cc3OC)nc3cccc(C)c23)n[nH]1
2 | < 1 | CCc1cc(Nc2nc(N[C@@H](C)c3ccc(F)cn3)nc3cccc(C)c23)n[nH]1
3 | 25 | CCc1cc(Nc2nc(NCc3ccc(Cl)cc3OC)nc3cccc(OC)c23)n[nH]1
